pIC50: −log10 of the molar value. Where a name gives a salt, the structure may show the parent alone.
The compounds below were run on MLKL phosphorylation in HT29-L23 human colorectal adenocarcinoma cells (assay: MLKL Phosphorylation High-Content Assay). Details: Homo sapiens, 6 h, necroptosis induced with TNFα, SMAC mimetic and Z-VAD, read-out: pMLKL (IC50).
Assay type: cell-based
Procedure: MLKL Phosphorylation High-Content Assay
HT29-L23 human colorectal adenocarcinoma cells were maintained in RPMI 1640 medium containing 10% heat-inactivated FBS, 1% Penicillin-Streptomycin and 10 mM HEPES. Cells were seeded at 2,000 cells/well in 384 well tissue culture-treated microplates (Greiner #781090-3B) and incubated at 37° C. (5% CO2/95% O2) for 2 d. […] (5% CO2/95% O2). Necroptopsis was induced using a mixture of human TNFα (35 ng/mL) (Peprotech #300-01A), SMAC mimetic (from US 2015/0322111 A1) (700 nM) and Z-VAD ([…]) (BD pharmingen #51-6936). Following 6 h incubation at 37° C. (5% CO2/95% O2), the cells were fixed with 4% formaldehyde (ACROS 11969-0010) for 15 min at rt, then permeabilized with phosphate buffered saline (PBS) containing 0.2% Triton-X-100 for 10 min. MLKL phosphorylation was detected using anti-MLKL (phospho S358) antibody (Abeam #ab 187091) (1:1000 dilution in Blocking Buffer [PBS supplemented with 0.1% BSA]) with ON incubation at 4° C. After washing three times in PBS, goat anti-rabbit Alexa-488 (1:1000 dilution) (Life Technologies, A11008) and Hoechst 33342 (Life Technologies, H3570) (1:2000 dilution) in Blocking Buffer were added for 1 h at rt.
Following another three cycles of washes in PBS, the microplates were sealed, and cellular images were acquired in the Cellomics ArrayScan VTI high-content imager equipped with an X1 camera. Fluorescent images were taken using a 10× objective and the 386-23 BGRFRN_BGRFRN and 485-20 BGRFRN_BGRFRN filter sets, for nuclei and MLKL phosphorylation, respectively. The image sets were analyzed using the Compartmental Analysis Bioapplication software (Cellomics). The level of MLKL phosphorylation was quantified as MEAN_CircRingAvglntenRatio. The maximal inhibitory response was defined by the activity induced by Neels (CAS #: 852391-15-2, 6.25 μM). […] The data were fitted using the 4-parameter logistic equation to calculate the IC50 and Ymax values.
CNC(=O)c1n[nH]c2cc(-c3cnc(OC)c(C(=O)NC(C)c4ccccc4C(F)(F)F)c3)ccc12 (single isomer, unassigned) [Example 129, 6-[6-methoxy-5-({1-[2-(tri-fluoromethyl)phenyl]ethyl}-carbamoyl)pyridin-3-yl]-N-methyl-1H-indazole-3-carboxamide] was tested, and the pIC50 was 8.05.

Same assay, conditions: necroptosis induced with TNFα, SMAC mimetic and Z-VAD, 6 h, read-out: pMLKL (IC50)
Work on CNC(=O)c1n[nH]c2cc(-c3cnc(OC)c(C(=O)N[C@H](C)c4cccc(OC(F)(F)F)c4)c3)ccc12 [Example 217, 6-[6-(deutero)methoxy-5-{[(1R)-1-[3-(trifluoromethoxy)phenyl](2,2,2-deutero)ethyl]carbamoyl}pyridin-3-yl]-N-(deutero)methyl-1H-indazole-3-carboxamide, TFA] yielded a pIC50 of 7.89.
CNC(=O)c1n[nH]c2cc(-c3cnc(OC)c(C(=O)NCc4cccc(OCC5CC5)c4)c3)ccc12 [Example 106, 6-[5-({[3-(cyclopropylmeth-oxy)phenyl]methyl}carbamoyl)-6-methoxypyridin-3-yl]-N-methyl-1H-indazole-3-carbox-amide] showed a pIC50 of 7.54.
CNC(=O)c1n[nH]c2cc(-c3cnc(OC)c(C(=O)NCc4cccc(OC(F)(F)F)c4)c3)ccc12 [Example 92] gave a pIC50 of 7.92.
In the case of CNC(=O)c1n[nH]c2cc(-c3cnc(OC)c(C(=O)NCc4ccccc4S(C)(=O)=O)c3)ccc12 [Example 66, 6-(5-{[(2-methanesulfonyl-phenyl)methyl]carbamoyl}-6-methoxypyridin-3-yl)-N-methyl-1H-indazole-3-carbox-amide], the pIC50 was 6.46.
CNC(=O)c1n[nH]c2cc(-c3cnc(OC)c(C(=O)NCC4(C(=O)OC5CCCCC5)CC4)c3)ccc12 [Example 133, cyclohexyl 1-[({2-methoxy-5-[3-(methylcarbamoyl)-1H-indazol-6-yl]pyridin-3-yl}-formamido)methyl]cyclopro-pane-1-carboxylate, TFA] was tested, and the pIC50 was 7.24.
Work on COc1ncc(-c2ccc3c(C(=O)N[C@@H](C)C4CC4)n[nH]c3c2)cc1C(=O)NCc1ccccc1OC(F)(F)F [Ex 173] yielded a pIC50 of 7.18.
With CNC(=O)c1n[nH]c2cc(-c3cnc(OC)c(C(=O)NCC4CCCCC4(C)C)c3)ccc12 (stereo not shown) [Example 81, 6-(5-{[(2,2-dimethylcyclo-hexyl)methyl]carbamoyl}-6-methoxypyridin-3-yl)-N-methyl-1H-indazole-3-carbox-amide] the pIC50 was 7.66.
With CNC(=O)c1n[nH]c2cc(-c3cnc(OC)c(C(=O)NCC(F)(F)COC(C)C)c3)ccc12 [Example 103, 6-(5-{[2,2-difluoro-3-(propan-2-yloxy)propyl]carbamoyl}-6-methoxypyridin-3-yl)-N-methyl-1H-indazole-3-carbox-amide] the pIC50 was 7.40.
CNC(=O)c1n[nH]c2cc(-c3cnc(OC)c(C(=O)NCc4cccc(OC5CCCC5)c4)c3)ccc12 [Example 107, 6-[5-({[3-(cyclopentyloxy)-phenyl]methyl}carbamoyl)-6-methoxypyridin-3-yl]-N-methyl-1H-indazole-3-carbox-amide] was tested, and the pIC50 was 7.14.
Compound CNC(=O)c1n[nH]c2cc(-c3cnc(OC)c(C(=O)NCc4ccccc4N4CCOCC4)c3)ccc12 [Example 53] has a pIC50 of 8.00.
CNC(=O)c1n[nH]c2cc(-c3cnc(OC)c(C(=O)NC(C)c4ccccc4C(F)(F)F)c3)ccc12 (stereo not shown) [Example 109, 6-[6-methoxy-5-({1-[2-(tri-fluoromethyl)phenyl]ethyl}-carbamoyl)pyridin-3-yl]-N-methyl-1H-indazole-3-carbox-amide] was tested, and the pIC50 was 7.82.
With CNC(=O)c1n[nH]c2cc(-c3cnc(OC)c(C(=O)NCc4cccc(C(F)(F)F)c4F)c3)ccc12 [Example 114, 6-[5-({[2-fluoro-3-(trifluoro-methyl)phenyl]methyl}carbam-oyl)-6-methoxypyridin-3-yl]-N-methyl-1H-indazole-3-carboxamide] the pIC50 was 6.70.
With CNC(=O)c1n[nH]c2cc(-c3cnc(OC)c(C(=O)N[C@@H](C)c4cccc(OC(F)(F)F)c4)c3)ccc12 [Example 221, 6-[6-(deutero)methoxy-5-{[(1S)-1-[3-(trifluoromethoxy)phenyl](2,2,2-deutero)ethyl]carbamoyl}pyridin-3-yl]-N-(deutero)methyl-1H-indazole-3-carboxamide] the pIC50 was 7.04.
With CNC(=O)c1n[nH]c2cc(-c3cnc(OC)c(C(=O)NC[C@@H]4C[C@@H]4c4ccccc4)c3)ccc12 [Example 52, 6-[6-methoxy-5-({[(1R,2S)-2-phenylcyclopropyl]methyl}-carbamoyl)pyridin-3-yl]-N-methyl-1H-indazole-3-carbox-amide] the pIC50 was 8.00.
Work on CNC(=O)c1n[nH]c2cc(-c3cnc(OC)c(C(=O)NC[C@H]4C[C@H]4c4ccccc4)c3)ccc12 [Example 51, 6-[6-methoxy-5-({[(1S,2R)-2-phenylcyclopropyl]methyl}-carbamoyl)pyridin-3-yl]-N-methyl-1H-indazole-3-carbox-amide] yielded a pIC50 of 9.05.
CCCS(=O)(=O)c1ccccc1CNC(=O)c1cc(-c2ccc3c(C(=O)NC)n[nH]c3c2)cnc1OC [Example 69, 6-[6-methoxy-5-({[2-(propane-1-sulfonyl)phenyl]methyl}-carbamoyl)pyridin-3-yl]-N-methyl-1H-indazole-3-carbox-amide] showed a pIC50 of 7.59.
For CNC(=O)c1n[nH]c2cc(-c3cnc(OC)c(C(=O)NCc4ccccc4S(=O)(=O)C(C)C)c3)ccc12 [Example 80, 6-[6-methoxy-5-({[2-(propane-2-sulfonyl)phenyl]methyl}-carbamoyl)pyridin-3-yl]-N-methyl-1H-indazole-3-carbox-amide], the pIC50 was 7.70.
Compound CNC(=O)c1n[nH]c2cc(-c3cnc(OC)c(C(=O)N[C@H](C)c4cc(C(F)(F)F)ccc4F)c3)ccc12 [Example 215] has a pIC50 of 7.80.
With CNC(=O)c1n[nH]c2cc(-c3cnc(OC)c(C(=O)NCc4ccccc4OC(F)F)c3)ccc12 [Example 78, 6-[5-({[2-(difluoromethoxy)-phenyl]methyl}carbamoyl)-6-methoxypyridin-3-yl]-N-methyl-1H-indazole-3-carbox-amide] the pIC50 was 7.96.
CNC(=O)c1n[nH]c2cc(-c3cnc(OC)c(C(=O)NC(C)c4ccc(F)c(C(F)(F)F)c4)c3)ccc12 (stereo not shown) [Example 105, 6-[5-({1-[4-fluoro-3-(trifluoro-methyl)phenyl]ethyl}carbam-oyl)-6-methoxypyridin-3-yl]-N-methyl-1H-indazole-3-carboxamide] was tested, and the pIC50 was 6.74.
CNC(=O)c1n[nH]c2cc(-c3cnc(OC)c(C(=O)N[C@@H](C)c4cc(C(F)(F)F)ccc4F)c3)ccc12 [Example 223, 6-(5-{[(1S)-1-[2-fluoro-5-(trifluoro-methyl)phenyl](2,2,2-deutero)ethyl]-carbamoyl}-6-(deutero)methoxy-pyridin-3-yl)-N-(deutero)methyl-1H-indazole-3-carboxamide] was tested, and the pIC50 was 7.55.
Work on CNC(=O)c1n[nH]c2cc(-c3cnc(OC)c(C(=O)NCc4ccccc4S(=O)(=O)NC4CC4)c3)ccc12 [Example 85, 6-[5-({[2-(cyclopropylsulfam-oyl)phenyl]methyl}carbam-oyl)-6-methoxypyridin-3-yl]-N-methyl-1H-indazole-3-carboxamide] yielded a pIC50 of 7.14.
With CNC(=O)c1n[nH]c2cc(-c3cnc(OC)c(C(=O)NCc4cccc(OC(C)C)c4)c3)ccc12 [Example 111, 6-[6-methoxy-5-({[3-(propan-2-yloxy)phenyl]methyl}-carbamoyl)pyridin-3-yl]-N-methyl-1H-indazole-3-carbox-amide, TFA] the pIC50 was 7.70.
CNC(=O)c1n[nH]c2cc(-c3cnc(OC)c(C(=O)NCc4ccccc4OCC(C)C)c3)ccc12 [Example 59, 6-[6-methoxy-5-({[2-(2-meth-ylpropoxy)phenyl]methyl}-carbamoyl)pyridin-3-yl]-N-methyl-1H-indazole-3-carbox-amide] showed a pIC50 of 8.96.
CNC(=O)c1n[nH]c2cc(-c3cnc(OC)c(C(=O)NC(C)c4cccc(OC(F)(F)F)c4)c3)ccc12 (stereo not shown) [Example 97, 6-[6-methoxy-5-({1-[3-(tri-fluoromethoxy)phenyl]ethyl}-carbamoyl)pyridin-3-yl]-N-methyl-1H-indazole-3-carbox-amide] was tested, and the pIC50 was 7.92.
CNC(=O)c1n[nH]c2cc(-c3cnc(OC)c(C(=O)NCc4cccc(C(F)(F)F)c4)c3)ccc12 [Example 102, 6-[6-methoxy-5-({[3-(trifluoro-methyl)phenyl]methyl}carbam-moyl)pyridin-3-yl]-N-methyl-1H-indazole-3-carboxamide] showed a pIC50 of 7.14.
For CNC(=O)c1n[nH]c2cc(-c3cnc(OC)c(C(=O)NC[C@H]4C[C@@H]4c4ccc(F)cc4)c3)ccc12 [Example 44, 6-[5-({[(1S,2S)-2-(4-fluoro-phenyl)cyclopropyl]methyl}-carbamoyl)-6-methoxypyridin-3-yl]-N-methyl-1H-indazole-3-carboxamide], the pIC50 was 7.54.

From patent US12172975B2, “1H-indazole carboxamides as receptor-interacting protein kinase 1 inhibitors (RIPK1)” (BRISTOL-MYERS SQUIBB COMPANY, priority 2018, dated 2024)
